Measured values from patent publication US20090143285A1, “TARGET PROTEIN AND TARGET GENE FOR DRUG DISCOVERY AND SCREENING METHOD” (REVERSE PROTEOMICS RESEARCH INSTITUTE CO., LTD., priority 2005, published 2009).

Assays:
[1] = target: FLJ37909-derived protein (human) (UniProt Q9BTT0); assay: SPR (BIACORE3000), His-tagged protein immobilised on the chip, compound injected
[2] = target: T1, FLJ41991-derived protein (Homo sapiens, UniProt P57764, E293G); assay: SEC/MS interaction analysis, FLJ41991-derived protein (GSDMDC1); format: binding; conditions: compound 12.5 μM, protein 25 μM
T1 construct: His-tag (N); made in house; host or cells: Escherichia coli BL21star(DE3)pLysS (pDEST17)
T1 sequence (P57764 265-484 E293G): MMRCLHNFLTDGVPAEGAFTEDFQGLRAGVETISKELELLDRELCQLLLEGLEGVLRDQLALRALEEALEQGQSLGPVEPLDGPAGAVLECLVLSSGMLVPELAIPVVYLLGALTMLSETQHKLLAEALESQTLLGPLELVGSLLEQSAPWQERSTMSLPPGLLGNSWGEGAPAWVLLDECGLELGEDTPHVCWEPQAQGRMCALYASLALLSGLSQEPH
Text: To analyze the interactions between commonly used drugs and proteins expressed from human full-length cDNA clones while keeping both the proteins and the compounds in non-modified, non-immobilized state, size exclusion chromatography (SEC) and mass analysis were used in combination. The specific procedures are shown below.
The compound-protein mixture prepared in step 1 was subjected to chromatography using an SEC column, the compound and the protein were separated by SEC, and the compound that interacted with the bound compound or protein contained in the protein fraction was analyzed using a mass analyzer.
Protein concentrations were measured using BCA Protein Assay (PIERCE), in consideration of the purity calculated by SDS-PAGE.
Mass analysis was performed using LCQ DECA XP (Thermoelectron) or Q-TOF micro (Micromass), equipped with an ESI probe. […]
In the 384-well spin column method, Unifilter 100 (Whatman), packed with 10 μL (dry volume) of Bio-Gel P6 (BIO-RAD) and swollen with milliQ water, was used as the SEC column. […] 2-μL of mass analysis samples were injected using an autosampler at 2-minute intervals; the mass spectral intensity of the compound was measured to retrieve the spectral intensity of the pharmaceutical compound contained in the SEC spin column filtrate (protein fraction eluted from SEC).

cyclosporin A (peptide)
Kd [1]: 1500 µM

O=C(c1ccc(OCCN2CCCCC2)cc1)c1c(-c2ccc(O)cc2)sc2cc(O)ccc12 [raloxifene]
spectrum intensity of the compound in the SEC spin column filtrate [2]: 331748
